These results are taken from BindingDB's records for PubMed 9400006 (Emory University, 1997).

The chains behind the UniProt entries cited, without tags or fusion partners.
UniProt P23975, whole entry: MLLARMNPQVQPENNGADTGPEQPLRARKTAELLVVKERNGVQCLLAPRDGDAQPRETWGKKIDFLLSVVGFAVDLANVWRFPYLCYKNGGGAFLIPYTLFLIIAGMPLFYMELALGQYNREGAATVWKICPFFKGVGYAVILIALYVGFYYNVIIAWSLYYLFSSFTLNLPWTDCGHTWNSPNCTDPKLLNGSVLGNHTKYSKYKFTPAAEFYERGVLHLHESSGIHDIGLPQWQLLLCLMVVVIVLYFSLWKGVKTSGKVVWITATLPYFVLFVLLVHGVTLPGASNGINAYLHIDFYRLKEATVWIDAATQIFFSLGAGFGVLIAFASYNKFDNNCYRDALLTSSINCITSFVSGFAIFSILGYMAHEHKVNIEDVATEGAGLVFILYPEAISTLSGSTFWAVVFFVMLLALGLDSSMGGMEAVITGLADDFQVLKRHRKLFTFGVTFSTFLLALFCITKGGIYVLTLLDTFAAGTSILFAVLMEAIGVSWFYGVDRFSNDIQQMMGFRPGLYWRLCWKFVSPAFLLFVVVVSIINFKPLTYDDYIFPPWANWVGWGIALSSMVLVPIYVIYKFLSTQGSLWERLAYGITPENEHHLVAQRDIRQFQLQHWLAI
UniProt P31652, whole entry: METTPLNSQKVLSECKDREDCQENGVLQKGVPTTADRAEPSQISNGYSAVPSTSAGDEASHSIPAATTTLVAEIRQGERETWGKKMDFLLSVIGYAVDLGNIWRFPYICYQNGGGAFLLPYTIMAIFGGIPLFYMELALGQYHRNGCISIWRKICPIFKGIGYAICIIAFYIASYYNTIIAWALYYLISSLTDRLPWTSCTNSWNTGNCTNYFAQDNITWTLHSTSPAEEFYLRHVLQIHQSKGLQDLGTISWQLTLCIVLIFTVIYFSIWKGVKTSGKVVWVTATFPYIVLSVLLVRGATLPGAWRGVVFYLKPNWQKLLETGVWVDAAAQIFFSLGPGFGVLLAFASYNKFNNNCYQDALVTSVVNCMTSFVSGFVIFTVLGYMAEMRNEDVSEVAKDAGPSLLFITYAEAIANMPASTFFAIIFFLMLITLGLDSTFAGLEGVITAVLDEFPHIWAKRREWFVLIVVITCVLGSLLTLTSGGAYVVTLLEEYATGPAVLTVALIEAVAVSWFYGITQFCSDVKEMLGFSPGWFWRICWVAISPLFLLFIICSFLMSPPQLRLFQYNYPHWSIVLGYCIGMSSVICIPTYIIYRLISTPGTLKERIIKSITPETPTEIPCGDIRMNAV
UniProt P08913, whole entry: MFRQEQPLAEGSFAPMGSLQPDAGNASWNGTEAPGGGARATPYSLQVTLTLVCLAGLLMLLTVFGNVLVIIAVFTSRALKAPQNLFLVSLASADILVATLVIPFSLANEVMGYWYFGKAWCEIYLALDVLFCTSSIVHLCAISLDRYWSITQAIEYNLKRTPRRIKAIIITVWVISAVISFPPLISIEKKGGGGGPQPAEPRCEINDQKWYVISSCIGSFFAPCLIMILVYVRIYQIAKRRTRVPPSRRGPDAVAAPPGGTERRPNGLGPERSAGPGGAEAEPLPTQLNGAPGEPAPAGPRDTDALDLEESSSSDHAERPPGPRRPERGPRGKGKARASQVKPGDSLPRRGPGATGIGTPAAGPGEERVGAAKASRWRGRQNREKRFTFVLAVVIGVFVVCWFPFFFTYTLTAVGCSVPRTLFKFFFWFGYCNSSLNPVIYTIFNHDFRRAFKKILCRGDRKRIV
UniProt P19327, whole entry: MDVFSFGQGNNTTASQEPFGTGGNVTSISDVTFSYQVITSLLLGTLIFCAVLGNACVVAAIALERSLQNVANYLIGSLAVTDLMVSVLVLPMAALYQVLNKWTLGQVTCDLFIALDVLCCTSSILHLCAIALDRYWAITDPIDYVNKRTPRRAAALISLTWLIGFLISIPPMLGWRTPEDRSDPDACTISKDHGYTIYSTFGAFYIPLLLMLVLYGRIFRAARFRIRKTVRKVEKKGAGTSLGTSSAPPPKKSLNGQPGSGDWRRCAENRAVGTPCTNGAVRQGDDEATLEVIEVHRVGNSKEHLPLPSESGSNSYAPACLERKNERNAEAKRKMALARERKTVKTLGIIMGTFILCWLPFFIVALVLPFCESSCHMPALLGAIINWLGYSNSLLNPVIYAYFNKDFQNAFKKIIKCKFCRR

Where “and” joins values, the source holds several entries; their conditions need not be identical. Equal values may be shown once.

The target in experiment [1] is Sodium-dependent noradrenaline transporter (Homo sapiens, UniProt P23975).
The target of experiment [2] is Sodium-dependent serotonin transporter (Rattus norvegicus, UniProt P31652).
The target in experiment [3] is Alpha-2A adrenergic receptor (Homo sapiens, UniProt P08913).
In experiment [4] the target is Norepinephrine transporter (Rattus norvegicus, UniProt Q9JIA2).
Experiment [5] concerns the target 5-hydroxytryptamine receptor 1A (Rattus norvegicus, UniProt P19327).

In the case of `CN(C)CCCN1c2ccccc2CCc2ccccc21`, the Ki (in general, a dissociation constant, usually derived from enzyme kinetics or from competition with a known ligand) in experiment [1] was 20 nM and 142 nM.

Turning to `N[C@H]1CC[C@@H](c2ccc(Cl)c(Cl)c2)c2ccccc21`, in experiment [2], the Ki worked out at 4.6 nM.

In turn, `CCc1nn(CCCN2CCN(c3cccc(Cl)c3)CC2)c(=O)n1CCOc1ccccc1` [2-{3-[4-(3-chlorophenyl)piperazin-1-yl]propyl}-5-ethyl-4-(2-phenoxyethyl)-2,4-dihydro-3H-1,2,4-triazol-3-one] had a Ki in experiment [3] of 84 nM.

With `CN(C)CC(c1ccc(O)cc1)C1(O)CCCCC1` (configuration not stated) [CAS_386750-22-7], the Ki in experiment [1] is 2750 nM and 3150 nM.

Consider `CNCCC=C1c2ccccc2CCc2ccccc21` [NORTRIPTYLINE], for which, in experiment [2], the Ki was 60 nM.

Consider `COc1ccc(C(CN(C)C)C2(O)CCCCC2)cc1` (configuration not stated) [NSC_62923], for which the affinity in experiment [4], expressed as Ki, was 1070 nM.

Regarding `NCCc1c[nH]c2ccc(O)cc12` [[3H]-5-HT], the affinity in experiment [5] corresponds to a Ki of 0.12 nM.
